{"sequences": {"note": "Protein sequences, listed by entry. Tags and fused reporters are not part of them. Lines headed by an entry give the natural chain unless they say otherwise; changes in a name come on top.", "UniProt O75582, whole entry, looked up": "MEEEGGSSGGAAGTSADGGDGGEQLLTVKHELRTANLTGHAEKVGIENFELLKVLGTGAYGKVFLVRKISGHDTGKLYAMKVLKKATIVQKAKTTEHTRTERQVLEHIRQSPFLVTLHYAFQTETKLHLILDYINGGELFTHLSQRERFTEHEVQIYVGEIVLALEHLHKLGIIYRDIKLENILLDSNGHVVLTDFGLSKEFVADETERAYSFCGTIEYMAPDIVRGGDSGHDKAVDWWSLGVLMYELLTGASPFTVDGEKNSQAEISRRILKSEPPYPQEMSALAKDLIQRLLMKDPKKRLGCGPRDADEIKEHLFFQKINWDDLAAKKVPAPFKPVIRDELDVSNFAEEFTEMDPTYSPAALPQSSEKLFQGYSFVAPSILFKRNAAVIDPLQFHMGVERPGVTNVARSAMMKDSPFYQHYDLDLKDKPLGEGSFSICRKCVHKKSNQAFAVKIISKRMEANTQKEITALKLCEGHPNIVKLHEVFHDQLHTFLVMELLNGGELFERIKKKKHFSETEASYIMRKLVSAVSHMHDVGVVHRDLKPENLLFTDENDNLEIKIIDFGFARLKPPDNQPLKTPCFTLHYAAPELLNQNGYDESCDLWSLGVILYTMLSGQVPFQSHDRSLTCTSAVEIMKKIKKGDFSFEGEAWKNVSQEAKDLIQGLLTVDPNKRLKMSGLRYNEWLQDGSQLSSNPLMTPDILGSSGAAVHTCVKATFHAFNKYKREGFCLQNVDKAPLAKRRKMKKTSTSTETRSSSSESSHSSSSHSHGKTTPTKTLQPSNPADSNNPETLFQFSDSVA", "UniProt O96013": "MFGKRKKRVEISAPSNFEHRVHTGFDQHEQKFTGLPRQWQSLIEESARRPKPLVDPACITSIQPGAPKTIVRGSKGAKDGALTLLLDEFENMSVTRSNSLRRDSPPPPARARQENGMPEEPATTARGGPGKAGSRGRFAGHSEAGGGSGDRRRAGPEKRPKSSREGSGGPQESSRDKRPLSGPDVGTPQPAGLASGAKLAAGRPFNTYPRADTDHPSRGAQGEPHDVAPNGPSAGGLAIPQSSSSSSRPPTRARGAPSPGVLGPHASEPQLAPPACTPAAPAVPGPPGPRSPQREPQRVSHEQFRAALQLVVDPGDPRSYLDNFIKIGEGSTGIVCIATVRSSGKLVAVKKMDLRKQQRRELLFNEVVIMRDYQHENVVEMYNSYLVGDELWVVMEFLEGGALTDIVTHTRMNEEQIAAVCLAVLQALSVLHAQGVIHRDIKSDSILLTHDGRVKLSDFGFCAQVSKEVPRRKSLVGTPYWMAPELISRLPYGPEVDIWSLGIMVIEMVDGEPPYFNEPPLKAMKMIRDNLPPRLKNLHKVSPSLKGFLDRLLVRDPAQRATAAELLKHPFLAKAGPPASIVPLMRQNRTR", "UniProt P18031": "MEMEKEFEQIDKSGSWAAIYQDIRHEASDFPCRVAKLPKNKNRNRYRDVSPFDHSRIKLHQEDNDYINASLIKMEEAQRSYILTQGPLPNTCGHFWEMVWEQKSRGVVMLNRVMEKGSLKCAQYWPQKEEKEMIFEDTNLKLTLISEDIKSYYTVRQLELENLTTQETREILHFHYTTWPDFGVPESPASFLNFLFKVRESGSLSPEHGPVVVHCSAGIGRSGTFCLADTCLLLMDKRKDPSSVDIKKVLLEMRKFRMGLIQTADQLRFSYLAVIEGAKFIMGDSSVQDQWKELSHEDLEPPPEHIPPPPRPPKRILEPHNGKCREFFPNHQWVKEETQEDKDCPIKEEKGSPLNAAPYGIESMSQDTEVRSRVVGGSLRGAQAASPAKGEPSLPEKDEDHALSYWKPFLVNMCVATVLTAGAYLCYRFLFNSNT", "UniProt Q05209": "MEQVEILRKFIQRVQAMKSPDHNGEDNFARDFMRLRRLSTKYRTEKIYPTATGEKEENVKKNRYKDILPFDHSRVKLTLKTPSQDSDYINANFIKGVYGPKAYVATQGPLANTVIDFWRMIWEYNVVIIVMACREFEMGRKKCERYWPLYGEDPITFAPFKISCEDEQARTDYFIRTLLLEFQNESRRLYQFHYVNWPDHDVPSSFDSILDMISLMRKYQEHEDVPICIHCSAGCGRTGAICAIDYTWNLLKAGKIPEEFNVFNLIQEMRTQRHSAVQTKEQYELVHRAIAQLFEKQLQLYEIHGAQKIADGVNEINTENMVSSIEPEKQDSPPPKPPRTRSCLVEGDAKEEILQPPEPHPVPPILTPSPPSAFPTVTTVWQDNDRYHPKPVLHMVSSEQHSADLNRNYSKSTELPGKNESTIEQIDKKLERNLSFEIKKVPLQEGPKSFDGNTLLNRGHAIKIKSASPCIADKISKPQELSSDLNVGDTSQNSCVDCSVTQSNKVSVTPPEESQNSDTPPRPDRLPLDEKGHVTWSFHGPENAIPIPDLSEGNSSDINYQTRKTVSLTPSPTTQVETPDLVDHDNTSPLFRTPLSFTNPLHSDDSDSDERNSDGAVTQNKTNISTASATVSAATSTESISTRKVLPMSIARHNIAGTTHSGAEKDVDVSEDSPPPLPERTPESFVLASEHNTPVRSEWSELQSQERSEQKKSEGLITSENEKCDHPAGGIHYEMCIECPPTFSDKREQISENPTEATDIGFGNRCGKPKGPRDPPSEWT", "UniProt Q15678": "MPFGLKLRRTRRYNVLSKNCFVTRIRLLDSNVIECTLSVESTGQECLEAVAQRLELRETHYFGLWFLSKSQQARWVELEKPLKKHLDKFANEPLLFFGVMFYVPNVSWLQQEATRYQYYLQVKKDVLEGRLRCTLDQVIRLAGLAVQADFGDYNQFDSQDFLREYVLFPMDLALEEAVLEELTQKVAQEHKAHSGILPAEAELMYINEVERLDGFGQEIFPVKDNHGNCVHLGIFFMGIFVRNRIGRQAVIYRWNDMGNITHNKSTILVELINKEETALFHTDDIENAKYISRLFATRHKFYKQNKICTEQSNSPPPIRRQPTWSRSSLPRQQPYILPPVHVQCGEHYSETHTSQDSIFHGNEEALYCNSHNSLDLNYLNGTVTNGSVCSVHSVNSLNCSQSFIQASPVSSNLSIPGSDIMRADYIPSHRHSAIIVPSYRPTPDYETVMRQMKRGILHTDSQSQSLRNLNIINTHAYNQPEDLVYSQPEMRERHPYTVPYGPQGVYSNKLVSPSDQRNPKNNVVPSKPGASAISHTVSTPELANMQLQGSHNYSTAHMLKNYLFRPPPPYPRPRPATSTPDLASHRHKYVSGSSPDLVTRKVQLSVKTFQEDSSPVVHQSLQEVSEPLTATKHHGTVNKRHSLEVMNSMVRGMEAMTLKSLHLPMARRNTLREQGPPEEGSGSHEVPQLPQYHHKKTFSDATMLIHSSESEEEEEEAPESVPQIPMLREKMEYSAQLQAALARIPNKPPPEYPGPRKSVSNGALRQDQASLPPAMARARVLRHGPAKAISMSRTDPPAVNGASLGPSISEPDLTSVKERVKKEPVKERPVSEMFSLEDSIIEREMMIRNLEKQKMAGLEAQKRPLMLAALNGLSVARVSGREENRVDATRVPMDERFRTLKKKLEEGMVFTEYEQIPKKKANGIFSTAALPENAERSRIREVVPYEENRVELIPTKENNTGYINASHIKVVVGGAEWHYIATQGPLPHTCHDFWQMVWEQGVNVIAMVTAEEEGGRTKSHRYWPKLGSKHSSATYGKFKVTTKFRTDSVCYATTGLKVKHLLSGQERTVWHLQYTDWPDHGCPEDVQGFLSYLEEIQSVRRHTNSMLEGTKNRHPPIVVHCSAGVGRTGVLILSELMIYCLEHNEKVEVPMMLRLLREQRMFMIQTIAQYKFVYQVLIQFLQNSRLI", "UniProt P28827, whole entry, looked up": "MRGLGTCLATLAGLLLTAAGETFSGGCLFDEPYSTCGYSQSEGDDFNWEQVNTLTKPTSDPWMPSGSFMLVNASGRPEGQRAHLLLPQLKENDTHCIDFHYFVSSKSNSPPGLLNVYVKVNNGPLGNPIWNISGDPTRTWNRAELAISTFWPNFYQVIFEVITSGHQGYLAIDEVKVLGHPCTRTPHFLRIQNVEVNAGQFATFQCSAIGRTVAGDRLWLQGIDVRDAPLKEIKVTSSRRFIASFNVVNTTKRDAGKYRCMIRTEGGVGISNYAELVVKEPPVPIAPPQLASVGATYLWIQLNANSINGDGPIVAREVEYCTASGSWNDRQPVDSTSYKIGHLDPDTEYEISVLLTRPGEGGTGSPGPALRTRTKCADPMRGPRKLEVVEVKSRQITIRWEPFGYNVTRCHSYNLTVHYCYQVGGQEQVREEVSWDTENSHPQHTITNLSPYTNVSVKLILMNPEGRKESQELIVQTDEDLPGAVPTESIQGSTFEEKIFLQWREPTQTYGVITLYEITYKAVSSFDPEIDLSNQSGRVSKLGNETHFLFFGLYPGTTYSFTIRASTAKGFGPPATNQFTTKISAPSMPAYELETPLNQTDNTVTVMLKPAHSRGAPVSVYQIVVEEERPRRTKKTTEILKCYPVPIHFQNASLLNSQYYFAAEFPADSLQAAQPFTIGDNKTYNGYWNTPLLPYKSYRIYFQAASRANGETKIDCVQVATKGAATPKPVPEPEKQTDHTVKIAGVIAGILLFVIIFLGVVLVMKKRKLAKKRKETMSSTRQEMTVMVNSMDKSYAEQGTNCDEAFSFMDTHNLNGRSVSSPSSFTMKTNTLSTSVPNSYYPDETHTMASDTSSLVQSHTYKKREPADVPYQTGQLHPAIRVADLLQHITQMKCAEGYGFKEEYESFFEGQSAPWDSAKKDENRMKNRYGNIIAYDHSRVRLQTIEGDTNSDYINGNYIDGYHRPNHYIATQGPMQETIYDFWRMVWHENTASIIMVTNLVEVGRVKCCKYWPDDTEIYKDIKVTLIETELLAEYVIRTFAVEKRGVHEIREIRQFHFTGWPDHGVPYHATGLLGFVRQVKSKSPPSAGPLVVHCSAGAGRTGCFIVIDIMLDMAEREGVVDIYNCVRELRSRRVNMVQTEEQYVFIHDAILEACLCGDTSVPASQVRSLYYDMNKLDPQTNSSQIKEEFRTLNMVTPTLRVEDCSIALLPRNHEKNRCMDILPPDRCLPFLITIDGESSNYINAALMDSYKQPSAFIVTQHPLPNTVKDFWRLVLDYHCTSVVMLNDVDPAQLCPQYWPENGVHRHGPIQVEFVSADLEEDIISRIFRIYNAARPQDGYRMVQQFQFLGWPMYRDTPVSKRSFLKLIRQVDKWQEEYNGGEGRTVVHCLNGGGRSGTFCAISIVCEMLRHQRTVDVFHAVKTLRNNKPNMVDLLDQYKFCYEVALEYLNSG", "UniProt P42336, whole entry, looked up": "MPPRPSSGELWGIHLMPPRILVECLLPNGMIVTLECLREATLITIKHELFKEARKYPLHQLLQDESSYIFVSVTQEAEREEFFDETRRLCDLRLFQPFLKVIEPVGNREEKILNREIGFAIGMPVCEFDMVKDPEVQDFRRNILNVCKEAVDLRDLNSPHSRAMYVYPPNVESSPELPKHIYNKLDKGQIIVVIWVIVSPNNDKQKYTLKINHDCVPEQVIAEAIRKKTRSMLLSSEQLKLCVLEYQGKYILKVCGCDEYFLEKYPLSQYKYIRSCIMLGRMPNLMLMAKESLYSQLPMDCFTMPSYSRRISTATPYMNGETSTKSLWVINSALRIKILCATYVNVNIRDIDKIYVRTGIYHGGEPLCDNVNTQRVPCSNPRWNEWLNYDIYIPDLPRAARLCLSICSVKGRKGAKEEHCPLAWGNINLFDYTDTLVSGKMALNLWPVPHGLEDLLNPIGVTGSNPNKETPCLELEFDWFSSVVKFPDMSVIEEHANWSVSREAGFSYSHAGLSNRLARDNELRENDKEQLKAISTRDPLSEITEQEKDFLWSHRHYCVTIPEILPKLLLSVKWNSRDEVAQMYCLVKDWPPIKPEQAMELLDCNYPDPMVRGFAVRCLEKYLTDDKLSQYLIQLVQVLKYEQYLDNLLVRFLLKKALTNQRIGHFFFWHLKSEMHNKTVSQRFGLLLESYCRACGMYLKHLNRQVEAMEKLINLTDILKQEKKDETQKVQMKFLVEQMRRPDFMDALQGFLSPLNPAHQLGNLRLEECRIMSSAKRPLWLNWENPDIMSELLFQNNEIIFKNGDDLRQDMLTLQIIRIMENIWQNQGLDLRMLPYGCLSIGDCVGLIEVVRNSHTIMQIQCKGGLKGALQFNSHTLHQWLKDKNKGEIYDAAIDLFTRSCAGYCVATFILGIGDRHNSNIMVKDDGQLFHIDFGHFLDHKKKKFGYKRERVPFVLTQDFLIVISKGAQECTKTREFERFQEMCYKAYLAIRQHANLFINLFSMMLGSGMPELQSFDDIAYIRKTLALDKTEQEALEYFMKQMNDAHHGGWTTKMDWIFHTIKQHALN"}, "source": "PubChem BioAssay (EPA / NIEHS)", "key": {"[1]": {"target": "human Mitogen- and Stress-activated Protein Kinase-1 (Msk1), RPS6KA5 (gene 9252) (UniProt O75582)", "assay": "NVS_ENZ_hMsk1: NovaScreen (NVS) Enzymatic Assay for human Mitogen- and Stress-activated Protein Kinase-1 (Msk1) (AID 2283187)", "how_it_was_run": "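Recombinant kinase with fluorescent substrate; product separated by electrophoretic mobility shift, read 1 h after dosing. Screened in duplicate at 25 uM; hits (e.g. ≥30% inhibition) tested in concentration–response up to 50 uM. DMSO baseline.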"}, "[2]": {"target": "human p21 Activated Kinase 4 (PAK4), PAK4 (gene 10298) (UniProt O96013)", "assay": "NVS_ENZ_hPAK4: NovaScreen (NVS) Enzymatic Assay for human p21 Activated Kinase 4 (PAK4) (AID 2283189)", "how_it_was_run": "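Cell-free recombinant human PAK4 activity assay; fluorescent substrate and product separated by electrophoretic mobility shift, read 1 h after dosing. Initially tested in duplicate at 25 uM, relative to DMSO baseline.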"}, "[3]": {"target": "cAMP-dependent protein kinase catalytic subunit alpha (Homo sapiens) (UniProt P17612)", "assay": "NVS_ENZ_hPKA: NovaScreen (NVS) Enzymatic Assay for human Protein Kinase A (PKA) (AID 2283192)", "how_it_was_run": "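Recombinant human PKA with specific fluorescent substrate, product separated by electrophoretic mobility shift, read 1 h after dosing. Primary screen at 25 uM in duplicate; actives then run in concentration-response up to 50 uM, activity relative to DMSO.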"}, "[4]": {"target": "human Phosphodiesterase 5 (PDE5), PDE5A (gene 8654) (UniProt O76074)", "assay": "NVS_ENZ_hPDE5: NovaScreen (NVS) Enzymatic Assay for human Phosphodiesterase 5 (PDE5) (AID 2283194)", "how_it_was_run": "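Recombinant human PDE5 with specific substrate, read 1 h after dosing by fluorescence with electrophoretic mobility-shift separation of substrate and product. Initial single-concentration duplicate screen at 25 uM, actives followed in concentration series; loss of activity versus DMSO.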"}, "[5]": {"target": "Serine/threonine-protein phosphatase PP1-alpha catalytic subunit (Homo sapiens) (UniProt P62136)", "assay": "NVS_ENZ_hPPP1CA: NovaScreen (NVS) Enzymatic Assay for human Protein Phosphatase 1 Aatalytic subunit Alpha (PPP1CA) (AID 2283200)", "how_it_was_run": "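Recombinant enzyme activity read by fluorescence with electrophoretic mobility shift separating substrate from product, 1.33 h after dosing; loss of signal vs DMSO baseline. Primary screen in duplicate at 25 uM; actives retested in concentration-response up to 50 uM.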"}, "[6]": {"target": "human Protein Tyrosine Phosphatase Non-receptor Type 1 (PTPN1), PTPN1 (gene 5770) (UniProt P18031)", "assay": "NVS_ENZ_hPTPN1: NovaScreen (NVS) Enzymatic Assay for human Protein Tyrosine Phosphatase Non-receptor Type 1 (PTPN1) (AID 2283201)", "how_it_was_run": "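Cell-free fluorogenic-substrate activity assay on recombinant enzyme, read 1.33 h after dosing by fluorescence and electrophoretic mobility shift; loss of signal vs DMSO baseline. Primary screen in duplicate at 25 uM, hits then run in concentration-response up to 50 uM.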"}, "[7]": {"target": "Tyrosine-protein phosphatase non-receptor type 11 (Homo sapiens) (UniProt Q06124)", "assay": "NVS_ENZ_hPTPN11: NovaScreen (NVS) Enzymatic Assay for human Protein Tyrosine Phosphatase Non-receptor Type 11 (PTPN11) (AID 2283202)", "how_it_was_run": "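Recombinant human PTPN11 activity on a fluorescent substrate, with substrate/product separated by electrophoretic mobility shift; read 0.5 h after dosing, loss of signal vs DMSO. Duplicate 25 uM screen, then concentration-response up to 50 uM.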"}, "[8]": {"target": "human Phosphatase and Tensin Homolog (PTEN), PTEN (gene 5728) (UniProt P60484)", "assay": "NVS_ENZ_hPTEN: NovaScreen (NVS) Enzymatic Assay for human Phosphatase and Tensin Homolog (PTEN) (AID 2283203)", "how_it_was_run": "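Cell-free recombinant human PTEN with fluorescent substrate; product separated by electrophoretic mobility shift and read by fluorescence 1 h after dosing. Primary screen in duplicate at 25 uM, actives followed in concentration series versus DMSO.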"}, "[9]": {"target": "Tyrosine-protein phosphatase non-receptor type 12 (Homo sapiens) (UniProt Q05209)", "assay": "NVS_ENZ_hPTPN12: NovaScreen (NVS) Enzymatic Assay for human Protein Tyrosine Phosphatase Non-receptor Type 12 (PTPN12) (AID 2283204)", "how_it_was_run": "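Single-concentration duplicates (25 uM) preceded singleton concentration-response up to 50 uM for chemicals passing threshold. Cell-free recombinant PTPN12 activity was read 1.33 h after dosing via fluorescence after mobility-shift separation; loss of signal versus DMSO.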"}, "[10]": {"target": "Tyrosine-protein phosphatase non-receptor type 13 (Homo sapiens) (UniProt Q12923)", "assay": "NVS_ENZ_hPTPN13: NovaScreen (NVS) Enzymatic Assay for human Protein Tyrosine Phosphatase Non-receptor Type 13 (PTPN13) (AID 2283205)", "how_it_was_run": "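Cell-free assay of recombinant human PTPN13 with a fluorescent substrate, product separated by electrophoretic mobility shift and read 0.5 h after dosing. Primary screen at 25 uM in duplicate, then concentration-response up to 50 uM. Loss of signal fitted against DMSO.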"}, "[11]": {"target": "Tyrosine-protein phosphatase non-receptor type 14 (Homo sapiens) (UniProt Q15678)", "assay": "NVS_ENZ_hPTPN14: NovaScreen (NVS) Enzymatic Assay for human Protein Tyrosine Phosphatase Non-receptor Type 14 (PTPN14) (AID 2283206)", "how_it_was_run": "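Cell-free recombinant human PTPN14 with fluorescent substrate, read 0.5 h after dosing by fluorescence and electrophoretic mobility shift separating substrate from product. Primary screen at 25 uM in duplicate; hits run to 50 uM maximum; loss of signal versus DMSO.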"}, "[12]": {"target": "human Protein Tyrosine Phosphatase Non-receptor Type 9 (PTPN9), PTPN9 (gene 5780) (UniProt P43378)", "assay": "NVS_ENZ_hPTPN9: NovaScreen (NVS) Enzymatic Assay for human Protein Tyrosine Phosphatase Non-receptor Type 9 (PTPN9) (AID 2283209)", "how_it_was_run": "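Sf9-expressed enzyme in a cell-free assay, fluorescence read 1.33 h after dosing with mobility-shift separation of substrate and product. Tested at 25 uM in duplicate, then up to 50 uM; signal loss versus DMSO.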"}, "[13]": {"target": "human Protein Tyrosine Phosphatase Receptor Type F (PTPRF), PTPRF (gene 5792) (UniProt P10586)", "assay": "NVS_ENZ_hPTPRF: NovaScreen (NVS) Enzymatic Assay for human Protein Tyrosine Phosphatase Receptor Type F (PTPRF) (AID 2283213)", "how_it_was_run": "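Cell-free fluorescence enzyme assay with recombinant protein and substrate; product separated by electrophoretic mobility shift. Read 1 h after dosing, single 25 uM duplicate screen, then concentration-response up to 50 uM; loss of signal vs DMSO.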"}, "[14]": {"target": "human Protein Tyrosine Phosphatase Receptor Type M (PTPRM), PTPRM (gene 5797) (UniProt P28827)", "assay": "NVS_ENZ_hPTPRM: NovaScreen (NVS) Enzymatic Assay for human Protein Tyrosine Phosphatase Receptor Type M (PTPRM) (AID 2283215)", "how_it_was_run": "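Cell-free recombinant PTPRM with fluorogenic substrate; product separated from substrate by electrophoretic mobility shift and read by fluorescence, 1.33 h after dosing. Primary screen single concentration (25 uM) in duplicate; actives retested in concentration series; loss of signal versus DMSO.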"}, "[15]": {"target": "human NIMA (Never In Mitosis Gene A)-Related Kinase 2 (NEK2), NEK2 (gene 4751) (UniProt P51955)", "assay": "NVS_ENZ_hNEK2: NovaScreen (NVS) Enzymatic Assay for human NIMA (Never In Mitosis Gene A)-Related Kinase 2 (NEK2) (AID 2283188)", "how_it_was_run": "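Cell-free NEK2 enzyme activity after 1 h exposure, read by fluorescence with electrophoretic mobility shift separating substrate and product. Primary screen in duplicate at 25 uM; actives then run as concentration series. Loss of signal versus DMSO scored.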"}, "[16]": {"target": "human Matrix Metalloproteinase-9 (MMP9), MMP9 (gene 4318) (UniProt P14780)", "assay": "NVS_ENZ_hMMP9: NovaScreen (NVS) Enzymatic Assay for human Matrix Metalloproteinase-9 (MMP9) (AID 2283190)", "how_it_was_run": "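Extracted enzyme, fluorescent substrate, 1 h post-dose read. Single conc 25 uM in duplicate, then concentration series for actives. Activity = signal loss relative to DMSO negative control.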"}, "[17]": {"target": "human Phosphoinositide 3-kinase alpha (PI3Ka), PIK3CA (gene 5290) (UniProt P42336)", "assay": "NVS_ENZ_hPI3Ka: NovaScreen (NVS) Enzymatic Assay for human Phosphoinositide 3-kinase alpha (PI3Ka) (AID 2283196)", "how_it_was_run": "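Fluorescence/mobility-shift readout of substrate conversion by recombinant enzyme, 1 h post-dosing. Primary screen in duplicate at 25 uM; actives (e.g. ≥30% inhibition) retested in singleton concentration-response, top concentration 50 uM.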"}, "[18]": {"target": "human Protein Tyrosine Phosphatase Non-receptor Type 2 (PTPN2), PTPN2 (gene 5771) (UniProt P17706)", "assay": "NVS_ENZ_hPTPN2: NovaScreen (NVS) Enzymatic Assay for human Protein Tyrosine Phosphatase Non-receptor Type 2 (PTPN2) (AID 2283207)", "how_it_was_run": "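Cell-free recombinant enzyme with fluorescent substrate, product separated by electrophoretic mobility shift; read 1 h after dosing. Primary screen single concentration (25 uM) in duplicate; actives followed in concentration series; loss of signal versus DMSO.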"}, "[19]": {"target": "human Sirtuin 3 (SIRT3), SIRT3 (gene 23410) (UniProt Q9NTG7)", "assay": "NVS_ENZ_hSIRT3: NovaScreen (NVS) Enzymatic Assay for human Sirtuin 3 (SIRT3) (AID 2283222)", "how_it_was_run": "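Cell-free enzyme assay with recombinant protein and fluorescent substrate, product separated by electrophoretic mobility shift; read 1 hour after dosing. Screened in duplicate at 25 uM, then singleton concentration-response up to 50 uM; loss of signal versus DMSO.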"}, "[20]": {"target": "human Phosphodiesterase 10 (PDE10), PDE10A (gene 10846) (UniProt Q9Y233)", "assay": "NVS_ENZ_hPDE10: NovaScreen (NVS) Enzymatic Assay for human Phosphodiesterase 10 (PDE10) (AID 2283195)", "how_it_was_run": "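Recombinant human PDE10 with fluorescent substrate, 1 h, product separated by electrophoretic mobility shift. Loss of enzyme activity fitted against DMSO; initial screen 25 uM in duplicate, actives run to 50 uM maximum.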"}}, "note": "The list shows a part of the results, in another mix than the full data. Results filed as inconclusive are left out. Some structures have more than one record in an assay (separate samples or runs), and their calls can disagree. Calls of active or inactive are those of the source. How the source made its calls: active means hit-call score of the fitted dose curve at least 0.9, where 1 is the maximum; inconclusive means response in the unintended direction; inactive means score below 0.9."}
{"smiles": "CN(C(=O)Cc1cccc2occc12)[C@H]1CC[C@@]2(CCCO2)C[C@@H]1N1CCCC1", "values": [{"measurement": "outcome", "setting": "[1]", "value": "inactive"}]}
{"smiles": "Cc1cc([N+](=O)[O-])cc([N+](=O)[O-])c1O", "values": [{"measurement": "outcome", "setting": "[1]", "value": "inactive"}, {"measurement": "outcome", "setting": "[2]", "value": "inactive"}, {"measurement": "outcome", "setting": "[3]", "value": "inactive"}, {"measurement": "outcome", "setting": "[4]", "value": "inactive"}, {"measurement": "outcome", "setting": "[5]", "value": "inactive"}, {"measurement": "outcome", "setting": "[6]", "value": "inactive"}, {"measurement": "outcome", "setting": "[7]", "value": "inactive"}, {"measurement": "outcome", "setting": "[8]", "value": "inactive"}, {"measurement": "outcome", "setting": "[9]", "value": "inactive"}, {"measurement": "outcome", "setting": "[10]", "value": "inactive"}, {"measurement": "outcome", "setting": "[11]", "value": "inactive"}, {"measurement": "outcome", "setting": "[12]", "value": "inactive"}, {"measurement": "outcome", "setting": "[13]", "value": "inactive"}, {"measurement": "outcome", "setting": "[14]", "value": "inactive"}]}
{"smiles": "CC(C)OP(=S)(OC(C)C)SCCNS(=O)(=O)c1ccccc1", "values": [{"measurement": "outcome", "setting": "[15]", "value": "inactive"}, {"measurement": "outcome", "setting": "[16]", "value": "inactive"}, {"measurement": "outcome", "setting": "[17]", "value": "inactive"}, {"measurement": "outcome", "setting": "[5]", "value": "inactive"}, {"measurement": "outcome", "setting": "[18]", "value": "inactive"}, {"measurement": "AC50", "setting": "[19]", "value": "active: 17.1 µM"}, {"measurement": "outcome", "setting": "[19]", "value": "inactive"}]}
{"smiles": "CCCCOP(OCCCC)OCCCC", "values": [{"measurement": "outcome", "setting": "[20]", "value": "inactive"}]}
{"smiles": "CCCCO[P+](=O)OCCCC", "values": [{"measurement": "outcome", "setting": "[20]", "value": "inactive"}, {"measurement": "outcome", "setting": "[17]", "value": "inactive"}]}
